Key:
[1] = tested on: pERK levels in RAS-mutated cell lines; assay: cells; settings: 1 h, read-out: IC50 of pERK levels
[2] = tested on: BRAF mutant A375 xenograft model; settings: mouse, in vivo
[3] = tested on: NCI-H358 SOS2 knockout cells
[4] = tested on: foreskin fibroblasts; assay: cells; settings: Fibroblast, read-out: IC50, proliferation
[5] = tested on: KRAS G12C-mutated MIA PaCa-2 xenografts; settings: 12 or 50 mg/kg twice daily

COc1cc2nc(C)nc(N[C@H](C)c3cc(N)cc(C(F)(F)F)c3)c2cc1O[C@H]1CCOC1 [BI-3406]
IC50 [1]: 17 to 57 nM | anti-tumor response [2]: No anti-tumor response | anti-proliferative effect [3]: enhanced | IC50 [4]: 37 nM | tolerability [5]: well tolerated
